Reference: paper PMC11926880, “Procognitive Potential of Neuroprotective Triazine 5-HT6 Receptor Antagonists Tested on Chronic Activity In Vivo in Rats: Computer-Aided Insight into the Role of Chalcogen-Differences on the Pharmacological Profile” (ACS Chemical Neuroscience, 2025)

Experiments:
[1] = low concentrations (WA-22 up to 0.15 mmol/L; PPK-32 at the lowest concentrations)
rats = assay: NORT after 21 day administration, discrimination index; assay type: in vivo, rat; settings: i.p., 21 days, reversal of (+)MK-801-induced memory impairments
Description: (§1) Standard laboratory food (LSM-B) and filtered water as well as environment enrichment were freely available. Animals were randomly divided into treatment groups using a computer-based random order generator. All of the experiments were performed by two observers unaware of the treatment applied between 9:00 and 14:00 on separate groups of animals.
In the NOR test (NORT), rats were randomly divided into experimental groups (n = 8/group). […] All compounds were prepared immediately before administration and were injected intraperitoneally (i.p.) in a constant volume of 2 mL/kg. […] The control group received 1% Tween 80 on the same schedule.
The test was carried out according to the method described by Ennaceur.[46] NORT was conducted in two black-painted wood boxes (60 cm × 60 cm × 60 cm). A video camera mounted above the boxes recorded all experiments. Two days before the test, the rats were placed in the empty experimental boxes for 5 min as a habituation to the test area. On the third day, the test was performed in 2 trials lasting for 3 min at one-hour intervals. […] The exploration time (E) of the objects (such as looking, licking, sniffing, or touching while sniffing) during T2 was measured, and the discrimination index (DI) was calculated according to the following formula: DI = (EB – EA)/(EA + EB). […]

[2] = pharmacokinetics in serum after single i.p. administration; assay type: in vivo, rat; settings: 1 mg/kg i.p.
Description: as §1
Rats were injected with the investigated compounds once (in pharmacokinetic studies) and for 21 days (in behavioral studies), and afterward, behavioral tests were conducted and tissue collection was done, as required. For pharmacokinetic studies, animals were fasted prior to dosing by withholding food but not water overnight. After dosing, the food was withheld for an additional 8 h. […]
The serum concentration–time data were analyzed by a noncompartmental method using the WinNonlin 8.2 nonlinear least-squares regression program (Pharsight Corporation, a Certara Company, Princeton, NJ, USA) to obtain pharmacokinetic parameters. […] The area under the serum concentration–time curve from time zero to time t (AUC0–t), where t is the time of the last measurable sample, was calculated according to the linear trapezoidal rule. […] The clearance (CL/F) was calculated as D/AUC0–∞, and the volume of distribution based on the terminal phase (Vz/F) was estimated as D/(λz·AUC0–∞), where F is the bioavailability of intraperitoneal administration.

[3] = kidneys, 1 mg/kg i.p.; cited from earlier work
[4] = design: method as in PMID 38190615, PMID 35228010; settings: caffeine as permeable reference; cited from earlier work

For `CN1CCN(c2nc(N)nc(C(C)(C)Sc3ccc4ccccc4c3)n2)CC1` [WA-22, 4-(4-methylpiperazin-1-yl)-6-(2-(naphthalen-2-ylthio)propan-2-yl)-1,3,5-triazin-2-amine], the “antioxidant activity compared to vitamin C” value [1] was “surpasses vitamin C” and the “minimal active chronic dose” value (rats) was 1 mg/kg/day.

For `CN1CCN(c2nc(N)nc(C(C)(C)[Se]c3ccc4ccccc4c3)n2)CC1` [PPK-32], the “Vz/F relative to average volume of total body water in rats (0.67 L/kg)” value [2] is listed as about 82 fold, the t1/2λz [3] is listed as 44 min and the “antioxidant activity compared to vitamin C” value [1] is listed as “weaker action than that of its S-analogue but distinctly stronger than vitamin C”. The “relative PeC (Pe/Pe of caffeine in the assay)” value [4] was 2.88.
